What was measured:
[1] = Apparent permeability across apical to basolateral side in human Caco2 cells; type: ADME, cell-based; details: caco-2
[2] = molecular target: Phosphatidylinositol 4-phosphate 5-kinase type-1 gamma (Homo sapiens, UniProt O60331); assay: Binding affinity to wild-type human partial length PIP5K1C (M1 to T668 residues) expressed in mammalian expression system assessed as residual binding level at 1 uM by Kinomescan method relative to control
[3] = AUC (0 to infinity) in Crl:CD Sprague-Dawley rat at 1 mg/kg, iv; type: ADME, organism-based; design: dose 1 mg/kg, route intravenous, time infinity; details: in vivo
[4] = Volume of distribution at steady state in Crl:CD Sprague-Dawley rat at 1 mg/kg, iv; type: ADME, organism-based; details: in vivo
[5] = Protein binding in mouse plasma; type: ADME, cell-free

Amino acid sequences for entries named in this document (tags omitted). A change or cut given only in a name is not applied to a line headed by its entry.
UniProt O60331: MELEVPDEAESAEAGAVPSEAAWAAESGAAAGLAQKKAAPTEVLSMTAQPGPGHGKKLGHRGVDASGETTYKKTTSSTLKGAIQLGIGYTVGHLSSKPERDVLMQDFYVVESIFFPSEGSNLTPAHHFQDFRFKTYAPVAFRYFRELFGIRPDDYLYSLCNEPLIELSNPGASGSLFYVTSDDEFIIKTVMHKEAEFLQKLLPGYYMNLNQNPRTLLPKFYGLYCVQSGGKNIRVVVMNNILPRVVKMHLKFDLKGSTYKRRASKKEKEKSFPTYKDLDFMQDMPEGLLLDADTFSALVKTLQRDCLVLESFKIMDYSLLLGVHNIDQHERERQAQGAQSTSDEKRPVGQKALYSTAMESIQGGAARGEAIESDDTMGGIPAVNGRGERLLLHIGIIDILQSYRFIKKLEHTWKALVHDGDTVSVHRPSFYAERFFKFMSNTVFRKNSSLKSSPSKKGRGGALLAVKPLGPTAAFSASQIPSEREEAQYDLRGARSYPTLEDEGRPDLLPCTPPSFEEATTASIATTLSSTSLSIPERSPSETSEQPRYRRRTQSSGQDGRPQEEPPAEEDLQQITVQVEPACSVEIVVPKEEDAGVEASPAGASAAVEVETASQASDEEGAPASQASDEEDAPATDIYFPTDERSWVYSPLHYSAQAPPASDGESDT

## CC(C)(C#N)c1cc(Nc2nc(N3CCC[C@H](N)C3)ncc2C(N)=O)cc(C(C)(C)C#N)c1
[1]
  Papp: 1.1 ×10⁻⁶ cm/s
[2]
  Activity: 3%
[3]
  AUC: 134 ng·h/mL
[4]
  Vdss: 40.3 L/kg
[5]
  PPB: 98.4%
